From ChEMBL document CHEMBL2169848, “Synthesis physicochemical profile and PAMPA study of new NO-donor edaravone co-drugs” (Bioorg Med Chem, 2012)

How the values were obtained:
Thoracic aorta [1] = assay: Vasodilatory activity in Wistar rat denuded thoracic aorta assessed as inhibition of L-phenylephrine-induced contraction; settings: strain Wistar
Thoracic aorta [2] = assay: Vasodilatory activity in Wistar rat thoracic aorta assessed as inhibition of L-phenylephrine-induced contraction in presence of 1 uM 1H-[1,2,4]oxadiazolo[4,3-a]quinoxalin-1-one; settings: strain Wistar

## O=[N+]([O-])OCC(CCCCO)O[N+](=O)[O-] (centres undefined)
Thoracic aorta [1]
  EC50: 0.83 µM
Thoracic aorta [2]
  EC50: > 100 µM

## O=C(O)CCCC(CO[N+](=O)[O-])O[N+](=O)[O-] (centres undefined)
Thoracic aorta [1]
  EC50: 5.8 µM
Thoracic aorta [2]
  EC50: > 100 µM
